Target: Vascular endothelial growth factor receptor 2 (Rattus norvegicus, UniProt O08775)
Test: Kinase Inhibition Assay
Details: pH 8; 30 °C
Experimental: The enzyme was assayed with a biotinylated peptide substrate and test compounds in the presence of 5 uM ATP/[gamma-33P]ATP in a streptavidin coated FlashPlate (Perkin-Elmer, Boston, MA). […] Linear regression analysis of the percent of inhibition by the test compound was used to calculate IC50 values.

Amino acid sequences for entries named in this document (tags omitted).
UniProt O08775, whole entry: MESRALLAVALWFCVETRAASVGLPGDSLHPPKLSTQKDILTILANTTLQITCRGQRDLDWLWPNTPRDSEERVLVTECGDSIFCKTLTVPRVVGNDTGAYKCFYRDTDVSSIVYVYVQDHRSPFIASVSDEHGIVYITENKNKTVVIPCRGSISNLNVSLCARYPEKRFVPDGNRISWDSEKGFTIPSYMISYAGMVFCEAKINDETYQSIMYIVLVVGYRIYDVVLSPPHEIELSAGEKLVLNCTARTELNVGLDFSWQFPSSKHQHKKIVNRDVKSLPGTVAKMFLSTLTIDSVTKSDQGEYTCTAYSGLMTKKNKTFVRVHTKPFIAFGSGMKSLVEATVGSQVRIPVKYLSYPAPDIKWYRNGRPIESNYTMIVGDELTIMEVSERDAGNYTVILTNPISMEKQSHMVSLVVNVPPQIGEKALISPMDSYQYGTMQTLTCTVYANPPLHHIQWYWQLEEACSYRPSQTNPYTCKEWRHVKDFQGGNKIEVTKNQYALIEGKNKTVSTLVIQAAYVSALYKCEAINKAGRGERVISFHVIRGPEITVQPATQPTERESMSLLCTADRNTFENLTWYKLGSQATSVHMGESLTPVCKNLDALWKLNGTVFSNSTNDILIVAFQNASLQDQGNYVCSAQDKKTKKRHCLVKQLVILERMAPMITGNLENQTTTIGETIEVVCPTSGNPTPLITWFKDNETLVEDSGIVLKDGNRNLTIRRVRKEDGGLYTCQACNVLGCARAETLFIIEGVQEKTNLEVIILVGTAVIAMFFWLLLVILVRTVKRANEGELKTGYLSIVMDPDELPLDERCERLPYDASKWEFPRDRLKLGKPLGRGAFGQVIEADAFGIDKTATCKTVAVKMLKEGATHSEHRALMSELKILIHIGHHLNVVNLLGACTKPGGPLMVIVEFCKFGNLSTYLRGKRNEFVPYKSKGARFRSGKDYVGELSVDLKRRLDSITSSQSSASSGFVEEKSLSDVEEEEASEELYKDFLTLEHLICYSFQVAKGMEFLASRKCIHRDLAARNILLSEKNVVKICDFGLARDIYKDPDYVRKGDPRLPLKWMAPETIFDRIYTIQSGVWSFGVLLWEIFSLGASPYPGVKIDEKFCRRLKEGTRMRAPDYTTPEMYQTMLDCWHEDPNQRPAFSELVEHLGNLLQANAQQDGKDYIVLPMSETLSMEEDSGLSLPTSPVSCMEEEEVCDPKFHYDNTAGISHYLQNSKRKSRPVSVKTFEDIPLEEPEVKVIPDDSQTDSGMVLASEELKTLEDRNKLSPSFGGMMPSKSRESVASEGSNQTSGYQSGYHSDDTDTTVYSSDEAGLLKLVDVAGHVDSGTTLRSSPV

**Q.** How did the IC50 turn out when `Cc1cc2c(F)c(Oc3ncnc(N)c3/C=N/OCCN(C)C)ccc2[nH]1` [5-[(1E)-{[2-(dimethylamino)ethoxy]imino}methyl]-6-[(4-fluoro-2-methyl-1H-indol-5-yl)oxy]pyrimidin-4-amine] was run?
**A.** 187 nM

**Q.** How did the IC50 turn out when `Cc1cc2c(F)c(Oc3ncnc(N)c3/C=N/OCCCN(C)C)ccc2[nH]1` [5-[(1E)-{[3-(dimethylamino)propoxy]imino}methyl]-6-[(4-fluoro-2-methyl-1H-indol-5-yl)oxy]pyrimidin-4-amine] was run?
**A.** 101 nM

**Q.** For `C=CCO/N=C/c1c(N)ncnc1Oc1ccc2[nH]c(C)cc2c1F` [6-[(4-fluoro-2-methyl-1H-indol-5-yl)oxy]-5-[(1E)-[(prop-2-en-1-yloxy)imino]methyl]pyrimidin-4-amine], which IC50 is on record?
**A.** 52 nM

**Q.** With `C#CCO/N=C/c1c(N)ncnc1Oc1ccc2[nH]c(C)cc2c1F` [6-[(4-fluoro-2-methyl-1H-indol-5-yl)oxy]-5-[(1E)-[(prop-2-yn-1-yloxy)imino]methyl]pyrimidin-4-amine] as the compound, how does the IC50 read?
**A.** 52 nM
